Data on three compounds can be found in PubChem BioAssay AID651638 (Johns Hopkins Ion Channel Center, 2012).

Chains of the proteins cited; added tags and fusions are not shown.
UniProt O14649, whole entry: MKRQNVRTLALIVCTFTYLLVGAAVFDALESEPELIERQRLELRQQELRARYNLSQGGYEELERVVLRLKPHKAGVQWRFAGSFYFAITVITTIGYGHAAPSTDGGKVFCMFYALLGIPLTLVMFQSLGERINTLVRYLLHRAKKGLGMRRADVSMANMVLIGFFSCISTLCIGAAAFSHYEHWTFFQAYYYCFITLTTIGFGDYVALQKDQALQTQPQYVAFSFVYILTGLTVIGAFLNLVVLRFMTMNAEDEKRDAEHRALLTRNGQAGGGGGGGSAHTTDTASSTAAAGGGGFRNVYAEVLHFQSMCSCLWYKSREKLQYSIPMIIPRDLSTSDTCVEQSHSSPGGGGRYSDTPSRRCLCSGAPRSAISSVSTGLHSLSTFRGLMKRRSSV

Only a part is listed here, and it is no random draw. The source made the active and inactive calls.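 How the source made its calls: active means ratio percent of control, averaged over triplicates, above buffer control mean plus 5 SD (cut at about 64% in these data); inactive means the rest.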

In this experiment the target is Potassium channel subfamily K member 3 (Homo sapiens) (UniProt O14649). Description: TASK1 potassium channel blockade, triplicate retest – CHO cells, FluxOR thallium flux, confirmation (AID 651638).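 Further: ratio is the fluorescence rise from min to max over baseline after thallium stimulus.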 The note with it: CHO-KCNK3 thallium flux, FluxOR fluorescence; at 10 µM; stronger effect = higher value; 0% buffer, 100% carvedilol maximal block.
For the compound `CC(C)(C)OC(=O)N1CCC(N(C(=O)c2ccccc2)c2ccc(Cl)cc2)CC1`, the ratio percent of control was active: 101%.

For the compound `CC(C)(C)OC(=O)N1CCC(N(C(=O)c2ccccc2)c2ccc(F)cc2)CC1`, the ratio percent of control was active: 116%.

`Cc1cc(C)cc(N(C(=O)c2ccccc2)C2CCN(C(=O)OC(C)(C)C)CC2)c1`: the ratio percent of control was active: 92.3%.
